The test deals with T1, varroa mite proctolin receptor (VdProctR) (Varroa destructor, UniProt A0A7T1TE40).
T1 sequence (A0A7T1TE40 1-530): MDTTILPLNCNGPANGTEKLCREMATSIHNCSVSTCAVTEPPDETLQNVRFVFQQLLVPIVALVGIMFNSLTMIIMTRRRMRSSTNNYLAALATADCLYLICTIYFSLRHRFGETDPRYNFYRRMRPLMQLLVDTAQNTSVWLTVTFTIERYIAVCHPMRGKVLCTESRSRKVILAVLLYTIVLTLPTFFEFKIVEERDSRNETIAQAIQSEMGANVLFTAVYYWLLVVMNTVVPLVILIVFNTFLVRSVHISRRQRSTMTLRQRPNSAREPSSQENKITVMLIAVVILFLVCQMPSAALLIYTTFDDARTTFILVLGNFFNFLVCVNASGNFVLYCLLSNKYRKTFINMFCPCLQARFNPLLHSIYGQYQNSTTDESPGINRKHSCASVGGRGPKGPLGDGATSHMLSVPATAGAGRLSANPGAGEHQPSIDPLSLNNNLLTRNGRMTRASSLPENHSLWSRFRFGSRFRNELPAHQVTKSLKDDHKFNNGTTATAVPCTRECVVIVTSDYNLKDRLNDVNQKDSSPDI
The experiment in a line: Receptor activity assay: luminescence in cells transiently transfected with varroa mite proctolin receptor. The class given is cell-based. The settings on record: for EC50: EC50 (nM), varroa mite proctolin receptor; for EC50 / Fold change: first set of experiments; for Fold change: EC50 relative to proctolin (0.22 nM). Here is the method: Receptor activity assay: Cells were transiently transfected with pcDNA3.1+ containing the open reading frame of varroa mite proctolin receptor (VdProctR) or empty vector using TransFr-2020 (Mirus Bio). Approximately thirty hours after transfection, the cells were collected and preincubated with coelenterazine h for the functional assay. The ligands in serial dilutions were loaded into 96-well opaque plates. Cells treated with coelenterazine h were injected into each well on an Orion microplate luminometer (Berthold) luminescent plate reader. The luminescence was measured for 20 seconds immediately after the cell injections. Data analyses were performed to determine the accumulated luminescence value for 20 seconds after extraction of blank-well luminescence. A dose-response curve was generated and the EC50 (50% effective concentration) was calculated in Origin 7 (OriginLab).

By EC50 is commonly meant the concentration giving half of the maximal effect. Read a high EC50 as lower potency in that assay. The molecule `CC(C)C[C@H](NC(=O)[C@H](Cc1ccc(O)cc1)NC(=O)[C@H](C)N)C(=O)N1CCC[C@H]1C(=O)N[C@H](C(=O)O)[C@@H](C)O` [Analog A1, AYLPT] displayed a concentration for a half-maximal effect (EC50) of 2970 nM and a Fold change of 13509.09.

In turn, `CC(C)C[C@H](NC(=O)[C@H](C)NC(=O)[C@@H](N)CCCNC(=N)N)C(=O)N1CCC[C@H]1C(=O)N[C@H](C(=O)O)[C@@H](C)O` [Analog A2, RALPT] had an EC50 of 3190 nM and a Fold change of 14486.36.

In turn, `C[C@H](NC(=O)[C@H](Cc1ccc(O)cc1)NC(=O)[C@@H](N)CCCNC(=N)N)C(=O)N1CCC[C@H]1C(=O)N[C@H](C(=O)O)[C@@H](C)O` [Analog A3, RYAPT] came in with a concentration giving a half-maximal response (EC50) of 84.3 nM and a Fold change of 383.05.

Regarding `CC(C)C[C@H](NC(=O)[C@H](Cc1ccc(O)cc1)NC(=O)[C@@H](N)CCCNC(=N)N)C(=O)N[C@@H](C)C(=O)N[C@H](C(=O)O)[C@@H](C)O` [Analog A4, RYLAT], the EC50 was found to be 3.54 nM and the Fold change came out at 16.09. Further, the “Activity at high concentrations compared with proctolin” value (at 1 μM and 10 μM) is “higher than that of proctolin”.

Regarding `CC(C)C[C@H](NC(=O)[C@H](Cc1ccc(O)cc1)NC(=O)[C@@H](N)CCCNC(=N)N)C(=O)N1CCC[C@H]1C(=O)N[C@@H](C)C(=O)O` [Analog A5, RYLPA], it took 47.4 nM to reach a half-maximal effect (EC50) and the Fold change was 215.64.

(Values after patent US20220338471A1, “HONEY BEE-SAFE ACARICIDAL COMPOUNDS” (Kansas State University Research Foundation, priority 2019, published 2022).)
